From patent publication US20090012018A1, “Inhibition of pancretic cancer cell growth” (priority 2004, published 2009)

Columns and labels:
Format in all cases: cell-based, human
[1] = test system: Wnt signaling (Top-Flash reporter); test: Fop/Top-Flash luciferase reporter assay; settings: for activity of the Wnt reporter: cyclopamine 10 μM, FIG. 4A
Method: The cell lines were plated the day prior to transfection at a density of 8×10^4 cells/well in a 24-well plate. The luciferase reporter constructs used included: Top-Flash and Fop-Flash containing multimerized Tcf-Lef binding sites or nonfunctional sites, respectively; TK-Luc (Promega); and GliBS containing 8×Gli binding sites upstream of the TK minimal promoter (Sasaki et al., Development, 124:1313-1322, 1997). In different experiments, the reporter constructs were co-transfected with an expression vector containing a dominant-negative form of Lef1 or the endogenous Wnt inhibitor Icat. The dominant negative Lef1 (gift from S. Pleasure) was generated by cloning the 63 amino acid N-terminal deleted form of Lef1 into the pEF5 plasmid. This construct also contains an IRES-EGFP cassette. The cDNA coding for the Icat protein was cloned into pIRES2-EGFP (BD Biosciences Clontech). Transfections were performed using the Effectene transfection reagent […] according to the user's manual. A Renilla luciferase plasmid (Promega) was included to control for transfection efficiency. Transfected cells were cultured in medium containing serum. […] Cells were harvested 24 hrs after transfection, and luciferase activity was assayed using the Dual Luciferase kit (Promega), according to the user's manual.
For each Fop-luciferase or Top-luciferase experiment, a renilla luciferase construct was included. For each experimental condition (drug treatment, co-transfection or siRNA), triplicate Top- and Fop-luciferase samples were analyzed. To equilibrate the total vector-DNA (or siRNA) amount in all samples, equivalent amounts of an empty expression vector or unrelated siRNAs were transfected into control samples. The following equations were used to obtain the normalized luciferase values and the relative (fold) activation. The firefly luciferase (Fop and Top) values were divided by the renilla luciferase values to obtain the normalized luciferase values. The normalized Top values for each condition were divided by the Fop values of the same condition (e.g., untreated Top/untreated Fop; drug-treated Top/drug-treated Fop). […] To minimize the number of bars in each figure, only representative average Fop values are included in the graphs.

[2] = test system: pancreatic adenocarcinoma cell lines; test: Growth, BrdU incorporation and apoptosis of pancreatic cancer cell lines (results stated for the lines together); settings: 75 μM sulindac sulfone, 5 μM cyclopamine or both; FIG. 4H
Method: The small chemical inhibitors were used at the following final concentrations: up to 250 μM for sulindac (Sigma), up to 300 μM for sulindac sulfone (Calbiochem or ICN), NS-398 up to 25 μM (Calbiochem), sodium salicylate up to 100 μM (Calbiochem). […] To test for drug sensitivity, the cells were plated in control medium or in medium containing the drug of interest for 2 to 5 days. The culture media was changed every 48 hrs. The images showing cell morphology were taken with a Nikon inverted microscope.
Cells were pulsed with 10 μM BrdU for two hours and then harvested and fixed. BrdU incorporation was detected with a fluorescein isothiocyanate conjugated anti-BrdU antibody (BD Biosciences) and total DNA was stained with 7-AAD (BD Biosciences). FACS analysis was performed according to the BD Biosciences BrdU flow kit manual. Cells in S-phase were defined as the BrdU-positive cell population with a DNA content between 2N and 4N. According to the manual, apoptotic cells were defined as a subpopulation of G0/G1 cells with DNA content lower than the diploid amount (<2N).
The cell lines were plated the day prior to transfection at a density of 8×10^4 cells/well in a 24-well plate. […]

[3] = test system: Hedgehog signaling (GliBS-luc reporter); test: GliBS-luciferase reporter assay; settings: CFPAC-1, BxPC3, L3.6sl, Panc4.21, cyclopamine 10 μM, sulindac 250 μM, FIG. 4B
Method: The cell lines were plated the day prior to transfection at a density of 8×10^4 cells/well in a 24-well plate. The luciferase reporter constructs used included: Top-Flash and Fop-Flash containing multimerized Tcf-Lef binding sites or nonfunctional sites, respectively; TK-Luc (Promega); and GliBS containing 8×Gli binding sites upstream of the TK minimal promoter (Sasaki et al., Development, 124:1313-1322, 1997). In different experiments, the reporter constructs were co-transfected with an expression vector containing a dominant-negative form of Lef1 or the endogenous Wnt inhibitor Icat. The dominant negative Lef1 (gift from S. Pleasure) was generated by cloning the 63 amino acid N-terminal deleted form of Lef1 into the pEF5 plasmid. This construct also contains an IRES-EGFP cassette. The cDNA coding for the Icat protein was cloned into pIRES2-EGFP (BD Biosciences Clontech). Transfections were performed using the Effectene transfection reagent […] according to the user's manual. A Renilla luciferase plasmid (Promega) was included to control for transfection efficiency. Transfected cells were cultured in medium containing serum. […] Cells were harvested 24 hrs after transfection, and luciferase activity was assayed using the Dual Luciferase kit (Promega), according to the user's manual. […]

With `CC1=C2C[C@H]3[C@@H](CC=C4C[C@@H](O)CC[C@@]43C)[C@@H]2CC[C@]12O[C@@H]1C[C@H](C)CN[C@H]1[C@H]2C` [cyclopamine, 11-deoxojervine] the “Top-Flash reporter activity (Wnt signaling)” value ([1]; CFPAC-1, BxPC3, L3.6sl, Panc4.21, 24 hrs after transfection, sulindac 250 μM, sulindac sulfone 150 μM, cyclopamine 10 μM, or co-transfection) was “inhibited”, the “activity of the Wnt reporter” value ([1]; CFPAC-1) was “strongly reduced” and the “activity of the Wnt reporter” value ([1]; L3.6sl) was “strongly reduced”. The “activity of the Wnt reporter” value ([1]; Panc4.21) was “strongly reduced”, the “cell proliferation as measured by BrdU incorporation” value [2] was “inhibits cell proliferation” and the “activity of the GliBS-luc Hedgehog reporter” value [3] was “inhibited”. For the same compound, the “activity of the GliBS-luc Hedgehog reporter” value ([3]; listed as Cyclopamine) was “inhibits the activity of the Hedgehog reporter construct”.
